Experimental data taken from patent EP4831186A1, “FUSED TRICYCLIC COMPOUND AND MEDICAL USE THEREOF” (dated 2026).

Experiments:
Capan-1 cells = experiment: Inhibitory activity against Capan-1 cell proliferation (CCK-8); details: read-out: Inhibitory activity IC50 against proliferation of Capan-1 cells, 5 days incubation
AsPc-1 cells = experiment: Inhibitory activity against AsPc-1 cell proliferation (CCK-8); details: read-out: Inhibitory activity IC50 against proliferation of AsPc-1 cells, 72 h incubation
[1] = In vivo pharmacokinetics in mice; details: ICR mice, intragastric administration, 35 mg/kg

Row | SMILES | IC50 (Capan-1 cells) | IC50 (AsPc-1 cells) | oral pharmacokinetic parameters (including Tmax, Cmax, AUC, etc.) in mice [1]
1 | C[C@H](c1cccnc1NP(=O)(O)O)N1c2nc(OC[C@@]34CCCN3C[C@H](F)C4)nc3c(F)c(-c4cc(N)cc(Cl)c4C(F)(F)F)nc(c23)OC[C@@H]1C | < 100 nM | < 100 nM | –
2 | C#Cc1c(F)ccc2cccc(-c3nc4c5c(nc(OCC67CCCN6CC(F)C7)nc5c3F)N(C(C)c3cccnc3NP(=O)(O)O)C(C)CO4)c12 (stereo not shown) | < 100 nM | < 100 nM | good oral pharmacokinetic parameters
3 | C#Cc1c(F)ccc2cccc(-c3nc4c5c(nc(OCC6CCCN6C)nc5c3F)N(C(C)c3cccnc3NP(=O)(O)O)C(C)CO4)c12 (stereo not shown) | < 100 nM | < 100 nM | –
